# Laboratory results: PubChem BioAssay AID602410 (Johns Hopkins Ion Channel Center, 2012)
# Chains of the proteins cited; added tags and fusions are not shown.
# UniProt O14649, whole entry: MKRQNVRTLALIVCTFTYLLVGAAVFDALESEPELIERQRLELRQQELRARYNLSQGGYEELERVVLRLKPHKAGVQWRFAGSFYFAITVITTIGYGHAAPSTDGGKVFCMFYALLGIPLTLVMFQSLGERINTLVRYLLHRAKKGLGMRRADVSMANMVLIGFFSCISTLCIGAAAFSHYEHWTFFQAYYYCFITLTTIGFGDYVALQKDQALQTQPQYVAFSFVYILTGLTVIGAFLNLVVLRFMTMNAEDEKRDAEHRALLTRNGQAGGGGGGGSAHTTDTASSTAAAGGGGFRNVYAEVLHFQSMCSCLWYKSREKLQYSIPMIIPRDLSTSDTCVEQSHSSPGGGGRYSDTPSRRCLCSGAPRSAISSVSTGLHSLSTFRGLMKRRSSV
# The list shows a part of the results, in another mix than the full data. The source made the active and inactive calls.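 Rule for the calls: active = B-score under library mean minus 4 SD, starting fluorescence ratio at most library mean plus 5 SD; inactive = the rest.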
# Target: Potassium channel subfamily K member 3 (Homo sapiens) (UniProt O14649)
# Assay: human KCNK3 channel inhibitors, primary screen, CHO cells, FluxOR thallium flux, B-score (AID 602410);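 for B-score: more negative B-score means stronger inhibition of thallium flux through KCNK3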
# Conditions: FluxOR fluorescence, at 10 µM; hits give low values
SMILES,outcome,B-score
Fc1ccccc1NC1CCN(Cc2ccccc2)CC1,inactive,
Cc1ccc(C(=O)NCC2(N3CCCCC3)CCCCC2)o1,inactive,
Cc1ccc(NC2(C#N)CCN(Cc3ccccc3)CC2)cc1,inactive,
CC(=O)N(c1ccccc1)C1CCNCC1,inactive,
COc1cc(OC)cc(C(=O)NCC2(N3CCCCC3)CCCCC2)c1,inactive,
CN(C)c1ccc(C(=O)NCC2(N3CCCCC3)CCCCC2)cc1,inactive,
Cn1c(=O)[nH]cc(N(CCCl)CCCl)c1=O,inactive,
O=C(NCC1(N2CCCCC2)CCCCC1)c1ccco1,inactive,
CCN1CCC(Nc2cccc(F)c2)CC1,inactive,
Cc1ccccc1NC1(C#N)CCN(Cc2ccccc2)CC1,inactive,
O=C(O)C1(Nc2ccccc2)CCN(Cc2ccccc2)CC1,inactive,
CC(C)(C)OC(=O)N1CCC(Nc2ccccc2)CC1,inactive,
CCCOc1ccc(C(=O)NCC2(N(C)C)CCCCC2)cc1,inactive,
CN1CCC(Nc2ccc(F)c(Cl)c2)CC1,inactive,
CCOc1ncccc1C(=O)NCC1(N2CCOCC2)CCCCC1,inactive,
CN1CCC(Nc2ccc(Cl)cc2)CC1,inactive,
COc1cc(OC)cc(C(=O)NCC2(N3CCOCC3)CCCCC2)c1,inactive,
COc1cccc(C(=O)N(c2cc(C)cc(C)c2)C2CCN(C(=O)OC(C)(C)C)CC2)c1,inactive,
CCC(CO)(C(=O)OC1CN2CCC1CC2)c1ccccc1 (centres undefined),inactive,
COc1ccc(C(=O)NCC2(N3CCOCC3)CCCCC2)cc1OC,inactive,
COc1cc(C(=O)NCC2(N3CCOCC3)CCCCC2)cc(OC)c1C,inactive,
O=C(NCC1(N2CCOCC2)CCCCC1)c1cc(Br)ccc1Cl,inactive,
O=C(OC1CN2CCC1CC2)C1c2ccccc2C=Cc2ccccc21 (centres undefined),inactive,
CCOC(=O)N1CCC(Nc2ccc(C)cc2)CC1,inactive,
N/C(=N\O)c1c(N)no[n+]1[O-],inactive,

SMILES,outcome,B-score
N#Cc1ccc(C(=O)NCC2(N3CCCCC3)CCCCC2)cc1,inactive,
CC(C)(C)OC(=O)N1CCC(N(C(=O)c2ccccc2)c2ccc(Cl)cc2)CC1,,active: -14
CN(C)C1(CNC(=O)c2cccc(C#N)c2)CCCCC1,inactive,
CCCN1CCC(Nc2cc(OC)cc(OC)c2)CC1,inactive,
Cc1cc(N(CCCl)CCCl)ccc1C=O,inactive,
c1ccc(CN2CCC(Nc3ccccc3)CC2)cc1,inactive,
N#CC1(Nc2ccccc2)CCN(CCc2ccccc2)CC1,inactive,
CCN1CCC(Nc2ccc(Cl)cc2)CC1,inactive,
O=C(NCC1(N2CCCCC2)CCCCC1)c1cccc([N+](=O)[O-])c1,inactive,
CSc1ccc(C(=O)NCC2(N3CCOCC3)CCCCC2)cc1,inactive,
O=C(NCC1(N2CCCCC2)CCCCC1)c1ccc(OC(F)F)cc1,inactive,
COc1cc(C(=O)NCC2(N3CCCCC3)CCCCC2)ccc1OC(F)F,inactive,
O=C(NCC1(N2CCOCC2)CCCCC1)c1cc(=O)[nH]c2ccccc12,inactive,
CN1CCN(CCOC(=O)C(O)(c2ccccc2)c2ccccc2)CC1,inactive,
COc1ccc(NC2CCN(C(=O)OC(C)(C)C)CC2)cc1,inactive,
CC(C)c1ccc(C(=O)NCC2(N3CCOCC3)CCCCC2)cc1,inactive,
O=C(NCC1(N2CCCCC2)CCCCC1)c1cccc(C(F)(F)F)c1,inactive,
O=C(NCC1(N2CCOCC2)CCCCC1)c1cc(F)c(F)cc1Cl,inactive,
COc1cc(OC)c(C(=O)NCC2(N(C)C)CCCCC2)cc1OC,inactive,
CC(C)c1ccc(NC2CCN(C(=O)OC(C)(C)C)CC2)cc1,inactive,
CN(C)c1cccc(C(=O)NCC2(N3CCCCC3)CCCCC2)c1,inactive,
COc1ccc(CN(CCCl)CCCl)cc1Cl,inactive,
CCCOc1ccc(C(=O)NCC2(N(C)C)CCCCC2)cc1OC,inactive,
CN1CCC(Nc2cccc(F)c2)CC1,inactive,
O=C(NCC1(N2CCCCC2)CCCCC1)c1cncc(Br)c1,inactive,

SMILES,outcome,B-score
Cc1cccc(NC2(C#N)CCN(Cc3ccccc3)CC2)c1,inactive,
CSc1ccccc1C(=O)NCC1(N2CCCCC2)CCCCC1,inactive,
COc1ccc(C(=O)NCC2(N3CCCCC3)CCCCC2)c(OC)c1OC,inactive,
CC(C)(C)OC(=O)N1CCC(N(C(=O)c2ccccc2)c2ccc(F)cc2)CC1,,active: -9.79
COc1ccc(C(=O)NCC2(N3CCCCC3)CCCCC2)cc1,inactive,
O=C(NCC1(N2CCCCC2)CCCCC1)c1cccs1,inactive,
O=C(NCC1(N2CCCCC2)CCCCC1)c1ccc(=O)[nH]c1,inactive,
COc1ccc(Cl)cc1C(=O)NCC1(N2CCOCC2)CCCCC1,inactive,
O=C(NCC1(N2CCCCC2)CCCCC1)c1ccc(Cl)s1,inactive,
N#CC1(Nc2ccccc2)CCN(Cc2ccccc2)CC1,inactive,
O=C(OC1CN2CCC1CC2)C1c2ccccc2Oc2ccccc21 (centres undefined),inactive,
CCOC(=O)N1CCC(Nc2ccc(OC)cc2)CC1,inactive,
Cc1cc(C)cc(N(C(=O)c2ccccc2)C2CCN(C(=O)OC(C)(C)C)CC2)c1,,active: -9.75
O=C(NCC1(N2CCCCC2)CCCCC1)c1ccc(Cl)nc1,inactive,
O=C(NCC1(N2CCOCC2)CCCCC1)c1cc2ccccc2o1,inactive,
COc1ccc(NC2CCN(CCc3ccccc3)CC2)c(OC)c1,inactive,
CCOC(=O)N1CCC(Nc2ccc(F)cc2)CC1,inactive,
O=P1(N(CCCl)CCCl)SCCCS1,inactive,
CCCCOc1ccc(C(=O)NCC2(N3CCOCC3)CCCCC2)cc1,inactive,
O=C(NCC1(N2CCCCC2)CCCCC1)c1ccc(F)cc1,inactive,
O=C1CCN(Cc2ccccc2)CC1,inactive,
CCOc1ccc(C)cc1CN(CCCl)CCCl,inactive,
CCOC(=O)N1CCC(Nc2cccc(C)c2)CC1,inactive,
COc1cc(C(=O)NCC2(N(C)C)CCCCC2)ccc1OC(F)F,inactive,
